These results are taken from patent publication US20080176810A1, “Use of 3, 4', 5-Trihydroxy-Stilbene-3-Beta-D-glucoside in Prepartion of Medicines For Treating and/or Preventing Ischemic Heart Disease” (SHENZHEN NEPTUNUS PHARMACEUTICAL CO., LTD., priority 2004, published 2008).

The data set in a line: Pharmacokinetics of single-dose iv in Beagle dogs.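 Further: plasma levels in healthy adult Beagle dogs, five per dose group, after slow forelimb iv injection over 5 min, parameters from non-compartmental statistical moment analysis.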 The note with it: 30 mg/kg iv.

Regarding “3,4′,5-trihydroxy-stilbene-3-β-D-glucoside [TSG]”, the “maximum concentration in plasma” value is recorded as “around 0.25 mmol/L”.
